Reference: BindingDB's records for doi:10.7270/Q2CF9NG2 (Srmlsc, 2007)

Molecular target: T1, Mevalonate kinase (Streptococcus pneumoniae serotype 2 (strain D39 / NCTC 7466), UniProt A0A0H2ZQX9)
T1 sequence (A0A0H2ZQX9 whole entry): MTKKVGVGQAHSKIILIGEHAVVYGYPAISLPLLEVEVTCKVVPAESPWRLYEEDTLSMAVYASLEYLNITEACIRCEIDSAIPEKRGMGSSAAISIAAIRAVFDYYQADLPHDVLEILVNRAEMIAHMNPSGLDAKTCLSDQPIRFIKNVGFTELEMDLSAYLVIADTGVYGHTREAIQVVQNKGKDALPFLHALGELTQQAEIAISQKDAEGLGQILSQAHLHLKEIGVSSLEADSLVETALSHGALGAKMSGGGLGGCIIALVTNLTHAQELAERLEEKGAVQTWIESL

O=c1c2ccccc2[se]n1-c1ccccc1 [2-Phenyl-benzo[d]isoselenazol-3-one]
pIC50: 6.54

pIC50: −log10 of the molar value.
